Experiment: Antioxidant activity assessed as DPPH radical scavenging activity at 20 uM incubated for 30 mins under dark condition by microplate reader based assay
Format: functional

## O=C1O[C@H]([C@@H](O)CO)C(O)=C1O
  Activity: 96.2%

Reference: ChEMBL document CHEMBL5154664, “Imidazolylacetophenone oxime-based multifunctional neuroprotective agents: Discovery and structure-activity relationships” (Eur J Med Chem, 2022)
